Molecular target: Neuronal acetylcholine receptor subunit alpha-4 (Homo sapiens, UniProt P43681)

The chains behind the UniProt entries cited, without tags or fusion partners. Where a name states a change or a piece, a line headed by the entry shows the natural chain unless it says otherwise.
UniProt P43681: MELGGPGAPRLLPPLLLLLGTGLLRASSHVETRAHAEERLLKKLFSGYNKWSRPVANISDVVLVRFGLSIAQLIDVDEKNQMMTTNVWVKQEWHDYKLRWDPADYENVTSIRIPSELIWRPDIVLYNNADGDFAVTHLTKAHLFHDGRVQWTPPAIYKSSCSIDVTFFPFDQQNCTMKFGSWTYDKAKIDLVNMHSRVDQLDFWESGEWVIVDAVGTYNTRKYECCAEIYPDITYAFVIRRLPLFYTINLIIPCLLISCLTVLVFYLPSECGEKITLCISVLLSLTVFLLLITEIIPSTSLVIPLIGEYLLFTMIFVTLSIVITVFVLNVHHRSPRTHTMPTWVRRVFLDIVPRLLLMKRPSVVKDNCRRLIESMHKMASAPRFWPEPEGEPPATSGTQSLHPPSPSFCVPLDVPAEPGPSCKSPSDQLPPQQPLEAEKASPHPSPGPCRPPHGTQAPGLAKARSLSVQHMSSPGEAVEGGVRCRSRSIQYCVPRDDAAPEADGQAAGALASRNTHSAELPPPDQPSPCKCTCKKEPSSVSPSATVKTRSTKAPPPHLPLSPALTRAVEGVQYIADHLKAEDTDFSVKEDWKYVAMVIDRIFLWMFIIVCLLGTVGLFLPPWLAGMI

C[N+](C)(C)CCO [2-hydroxy-N,N,N-trimethylethanaminium]
Ki: 7 µM

Source: BindingDB's records for doi:10.1124/mol.64.6.1283 (Barrow Neurological Institute, 2003)
